Test results published in PubChem BioAssay AID629 (Emory University Molecular Libraries Screening Center, 2007).
The entries are a selection whose mix differs from that of the whole data set. The source made the active and inactive calls. No stated cut-off is given here; in the data, active means inhibition above about 50%; inactive means the rest.

Protein sequences, listed by entry. Tags and fused reporters are not part of them.
UniProt P03372, whole entry, looked up: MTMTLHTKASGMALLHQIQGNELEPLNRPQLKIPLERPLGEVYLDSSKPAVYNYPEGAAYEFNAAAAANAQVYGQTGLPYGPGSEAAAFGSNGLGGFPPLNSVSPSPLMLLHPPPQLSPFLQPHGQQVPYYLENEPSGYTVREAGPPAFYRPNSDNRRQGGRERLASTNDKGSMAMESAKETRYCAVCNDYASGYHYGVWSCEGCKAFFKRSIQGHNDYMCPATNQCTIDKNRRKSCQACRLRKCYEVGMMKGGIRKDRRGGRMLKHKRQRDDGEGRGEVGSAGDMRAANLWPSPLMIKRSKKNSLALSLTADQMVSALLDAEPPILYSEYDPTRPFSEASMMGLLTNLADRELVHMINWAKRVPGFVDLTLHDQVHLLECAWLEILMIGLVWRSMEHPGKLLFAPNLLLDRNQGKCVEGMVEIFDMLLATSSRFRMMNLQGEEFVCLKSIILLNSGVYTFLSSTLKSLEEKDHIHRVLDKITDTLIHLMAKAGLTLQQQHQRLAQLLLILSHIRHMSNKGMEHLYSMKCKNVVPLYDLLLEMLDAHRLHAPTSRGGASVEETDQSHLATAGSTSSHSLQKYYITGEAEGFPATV

Target: Estrogen receptor (Homo sapiens) (UniProt P03372)
Assay: ERα–SRC-1 coactivator interaction inhibitors, primary screen, biochemical, TR-FRET, ERα LBD, estradiol-bound (AID 629);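 further: 0% = receptor plus peptide control and 100% = peptide only without receptor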
Conditions: TR-FRET ER-alpha LBD / SRC-1 peptide, at 25.6 µM, stronger effect = higher value

Row | Compound | inhibition
1 | O=C(OC1CN2CCC1CC2)c1cccc(Cl)c1 (configuration not stated) | inactive: 2.27%
2 | O=P(Nc1nccs1)(c1ccccc1)c1ccccc1 | inactive: -0.59%
3 | c1nnnn1CCn1cnnn1 | inactive: -6.86%
4 | O=P1(Nc2nc3ccc(Cl)cc3s2)COc2ccccc2O1 (configuration not stated) | inactive: 2.35%
5 | COC(=O)c1cc2c(s1)N=C(c1ccccc1)N(C)P2(=O)N1CCOCC1 (configuration not stated) | inactive: -24.8%
6 | CCOP(=O)(Nc1ccccc1)OCC | inactive: 20.5%
7 | CN1CCCC(OC(=O)C(c2ccccc2)c2ccccc2)C1 (configuration not stated) | inactive: 4.22%
8 | Cc1c2non([O-])c-2c(C)[n+](=O)[n+]1[O-] | inactive: 2.52%
9 | Oc1ccccc1CNc1ccccn1 | inactive: 7.09%
10 | O=[N+]([O-])c1cccc2n[nH]nc12 | inactive: 4.36%
11 | CCc1nc2c(n1)c1c(non1O)c1c2no[n+]1[O-] | inactive: -0.77%
12 | CC1CCN(C(=O)Oc2c(Cl)cc(Cl)c3cccnc23)CC1 | inactive: 2.7%
13 | COP1(=S)c2c(C)nn(CCC#N)c2N=C(c2ccc(F)cc2)N1C (configuration not stated) | inactive: -3.92%
14 | O=C(COc1ccccc1)OC1CN2CCC1CC2 (configuration not stated) | inactive: 0.75%
15 | CCC(C)N(CC(C)C)C(=S)SC(NC(C)=O)C(Cl)(Cl)Cl (configuration not stated) | inactive: -9.54%
16 | O=C(OC1CN2CCC1CC2)C12CC3CC(CC(C3)C1)C2 (configuration not stated) | inactive: 8.94%
17 | ClCCSc1nnc(-c2cccnc2)o1 | inactive: 5.92%
18 | CCOP1(=S)c2c(C)nn(CCC#N)c2N=C(c2ccccc2F)N1C (configuration not stated) | inactive: 1.63%
19 | CCOP1(=S)c2c(C)nn(CCC#N)c2N=C(c2ccc(F)cc2)N1C (configuration not stated) | inactive: -6.26%
20 | Cc1cccc(OCC(=O)OC2CN3CCC2CC3)c1 (configuration not stated) | inactive: -1.74%
21 | O=P1(Nc2ccccn2)COc2ccccc2OC1 | inactive: 2%
22 | Clc1n[nH]nc1-c1nn[nH][15n]1 | inactive: 0.53%
23 | CC1(CBr)Cn2c(nc3ccccc3c2=O)S1 (configuration not stated) | inactive: 23.7%
24 | Cc1nn(-c2ccccc2)c2c1P(=O)(N1CCOCC1)N(C)C(c1ccccc1)=N2 (configuration not stated) | inactive: 21.3%
25 | O=P1(Nc2ncccn2)COc2ccccc2OC1 | inactive: 5.82%
26 | O=P1(Nc2ccc(Br)cn2)COc2ccccc2OC1 | inactive: 9.17%
27 | Cc1ccc(OCC(=O)OC2CN3CCC2CC3)cc1 (configuration not stated) | inactive: 4.95%
